9 compounds from ChEMBL document CHEMBL2218924, “A broad activity screen in support of a chemogenomic map for kinase signalling research and drug discovery” (Biochem J, 2013) can be followed below.

Sequences of proteins named here, by UniProt entry; tags and fusion partners are left off. A change or cut given only in a name is not applied to a line headed by its entry.
UniProt P20248, whole entry, looked up: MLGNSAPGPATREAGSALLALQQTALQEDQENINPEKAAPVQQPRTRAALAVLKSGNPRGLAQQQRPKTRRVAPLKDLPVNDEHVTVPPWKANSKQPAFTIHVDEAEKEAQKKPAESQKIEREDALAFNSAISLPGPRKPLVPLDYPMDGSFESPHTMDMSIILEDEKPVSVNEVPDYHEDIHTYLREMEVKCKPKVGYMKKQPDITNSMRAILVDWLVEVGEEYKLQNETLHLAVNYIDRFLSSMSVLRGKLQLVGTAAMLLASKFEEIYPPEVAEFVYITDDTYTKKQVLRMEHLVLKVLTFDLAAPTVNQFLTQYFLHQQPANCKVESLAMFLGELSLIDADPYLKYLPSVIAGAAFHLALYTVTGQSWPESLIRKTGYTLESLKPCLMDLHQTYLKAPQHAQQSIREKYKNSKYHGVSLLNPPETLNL
UniProt P78396: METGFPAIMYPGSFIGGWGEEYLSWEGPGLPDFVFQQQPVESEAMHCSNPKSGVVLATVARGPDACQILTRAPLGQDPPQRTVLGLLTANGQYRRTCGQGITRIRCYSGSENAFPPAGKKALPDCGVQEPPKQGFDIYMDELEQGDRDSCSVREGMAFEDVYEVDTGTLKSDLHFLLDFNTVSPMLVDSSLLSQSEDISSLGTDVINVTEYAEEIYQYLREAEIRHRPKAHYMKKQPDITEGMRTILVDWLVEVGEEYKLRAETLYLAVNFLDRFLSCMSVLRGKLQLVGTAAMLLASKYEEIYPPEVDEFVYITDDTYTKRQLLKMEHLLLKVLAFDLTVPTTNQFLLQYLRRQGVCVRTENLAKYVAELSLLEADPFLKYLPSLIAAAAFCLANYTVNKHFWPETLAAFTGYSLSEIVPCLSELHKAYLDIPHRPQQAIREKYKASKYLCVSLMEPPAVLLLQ
UniProt Q9UIK4: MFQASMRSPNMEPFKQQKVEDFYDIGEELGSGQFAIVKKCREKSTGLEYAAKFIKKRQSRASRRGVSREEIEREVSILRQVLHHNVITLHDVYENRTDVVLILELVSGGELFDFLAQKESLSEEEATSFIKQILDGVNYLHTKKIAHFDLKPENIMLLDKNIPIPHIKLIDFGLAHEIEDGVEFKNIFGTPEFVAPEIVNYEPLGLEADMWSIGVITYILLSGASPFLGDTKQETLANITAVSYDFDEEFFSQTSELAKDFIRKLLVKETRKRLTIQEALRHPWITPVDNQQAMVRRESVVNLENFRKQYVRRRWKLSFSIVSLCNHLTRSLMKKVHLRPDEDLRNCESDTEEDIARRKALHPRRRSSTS
UniProt P51617, whole entry, looked up: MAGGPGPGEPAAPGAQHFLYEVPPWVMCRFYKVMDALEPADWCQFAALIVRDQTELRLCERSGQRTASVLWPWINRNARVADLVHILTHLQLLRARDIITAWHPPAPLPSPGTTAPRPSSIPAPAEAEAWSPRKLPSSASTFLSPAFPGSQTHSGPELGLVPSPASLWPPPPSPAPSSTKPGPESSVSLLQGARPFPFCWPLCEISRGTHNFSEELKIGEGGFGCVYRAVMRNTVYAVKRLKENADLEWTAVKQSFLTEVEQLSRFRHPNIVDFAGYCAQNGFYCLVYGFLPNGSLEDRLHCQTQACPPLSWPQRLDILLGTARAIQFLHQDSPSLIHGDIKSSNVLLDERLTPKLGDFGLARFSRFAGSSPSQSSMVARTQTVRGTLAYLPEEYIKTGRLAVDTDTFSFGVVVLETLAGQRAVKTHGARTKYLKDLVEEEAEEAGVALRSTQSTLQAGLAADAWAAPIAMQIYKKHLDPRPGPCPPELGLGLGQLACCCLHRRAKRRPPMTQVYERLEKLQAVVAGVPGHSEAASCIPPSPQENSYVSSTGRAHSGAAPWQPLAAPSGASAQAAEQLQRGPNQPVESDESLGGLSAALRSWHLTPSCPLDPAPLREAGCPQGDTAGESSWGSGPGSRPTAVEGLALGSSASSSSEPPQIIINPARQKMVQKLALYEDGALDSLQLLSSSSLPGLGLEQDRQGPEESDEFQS
UniProt P36888, whole entry: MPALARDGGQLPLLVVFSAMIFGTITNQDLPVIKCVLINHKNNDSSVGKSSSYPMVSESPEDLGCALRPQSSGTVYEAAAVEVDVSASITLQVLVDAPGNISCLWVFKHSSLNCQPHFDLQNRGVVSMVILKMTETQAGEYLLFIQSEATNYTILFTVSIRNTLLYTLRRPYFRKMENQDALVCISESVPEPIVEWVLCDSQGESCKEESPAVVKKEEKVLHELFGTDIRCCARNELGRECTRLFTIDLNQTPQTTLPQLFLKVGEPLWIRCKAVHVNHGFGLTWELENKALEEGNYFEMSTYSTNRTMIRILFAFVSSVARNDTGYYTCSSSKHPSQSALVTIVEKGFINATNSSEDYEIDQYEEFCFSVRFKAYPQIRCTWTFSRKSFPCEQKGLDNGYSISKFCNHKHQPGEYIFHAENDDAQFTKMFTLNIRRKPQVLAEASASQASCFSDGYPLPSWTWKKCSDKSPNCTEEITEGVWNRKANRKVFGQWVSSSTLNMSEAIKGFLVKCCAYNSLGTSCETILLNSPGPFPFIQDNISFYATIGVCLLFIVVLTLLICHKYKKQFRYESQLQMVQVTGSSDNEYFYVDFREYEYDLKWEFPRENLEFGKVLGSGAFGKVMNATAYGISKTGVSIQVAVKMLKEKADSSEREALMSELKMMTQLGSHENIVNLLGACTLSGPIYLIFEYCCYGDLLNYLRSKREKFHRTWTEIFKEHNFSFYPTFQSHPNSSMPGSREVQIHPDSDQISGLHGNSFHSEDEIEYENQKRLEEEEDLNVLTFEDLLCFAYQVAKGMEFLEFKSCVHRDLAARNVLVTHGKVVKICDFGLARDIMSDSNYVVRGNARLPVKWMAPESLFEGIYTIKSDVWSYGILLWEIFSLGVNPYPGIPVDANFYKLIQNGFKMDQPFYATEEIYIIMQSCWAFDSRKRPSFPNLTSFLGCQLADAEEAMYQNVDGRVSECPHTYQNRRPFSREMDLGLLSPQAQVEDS
UniProt Q15759, whole entry: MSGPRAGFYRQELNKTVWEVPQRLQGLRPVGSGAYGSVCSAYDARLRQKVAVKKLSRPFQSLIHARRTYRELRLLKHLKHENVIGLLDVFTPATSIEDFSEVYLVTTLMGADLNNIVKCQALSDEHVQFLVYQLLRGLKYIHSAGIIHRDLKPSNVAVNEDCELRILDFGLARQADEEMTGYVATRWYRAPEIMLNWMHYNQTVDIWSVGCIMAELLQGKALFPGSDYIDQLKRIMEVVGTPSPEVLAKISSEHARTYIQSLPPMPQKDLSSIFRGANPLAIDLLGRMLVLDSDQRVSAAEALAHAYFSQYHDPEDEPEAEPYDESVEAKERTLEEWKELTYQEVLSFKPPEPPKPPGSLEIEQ
UniProt P08631: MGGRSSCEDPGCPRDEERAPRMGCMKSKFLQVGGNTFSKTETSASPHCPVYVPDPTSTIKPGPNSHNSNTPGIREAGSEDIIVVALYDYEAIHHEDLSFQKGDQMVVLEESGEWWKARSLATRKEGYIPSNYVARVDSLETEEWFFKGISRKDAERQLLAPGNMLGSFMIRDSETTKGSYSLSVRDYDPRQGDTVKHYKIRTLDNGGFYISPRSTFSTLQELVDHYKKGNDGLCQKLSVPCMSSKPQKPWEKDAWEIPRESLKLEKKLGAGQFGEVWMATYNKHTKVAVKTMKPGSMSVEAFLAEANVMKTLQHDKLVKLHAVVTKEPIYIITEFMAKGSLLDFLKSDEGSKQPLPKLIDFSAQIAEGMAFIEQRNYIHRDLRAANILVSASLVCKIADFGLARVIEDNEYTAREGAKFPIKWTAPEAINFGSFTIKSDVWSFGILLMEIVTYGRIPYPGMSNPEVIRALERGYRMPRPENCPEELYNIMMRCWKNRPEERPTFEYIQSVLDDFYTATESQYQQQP
UniProt Q13464: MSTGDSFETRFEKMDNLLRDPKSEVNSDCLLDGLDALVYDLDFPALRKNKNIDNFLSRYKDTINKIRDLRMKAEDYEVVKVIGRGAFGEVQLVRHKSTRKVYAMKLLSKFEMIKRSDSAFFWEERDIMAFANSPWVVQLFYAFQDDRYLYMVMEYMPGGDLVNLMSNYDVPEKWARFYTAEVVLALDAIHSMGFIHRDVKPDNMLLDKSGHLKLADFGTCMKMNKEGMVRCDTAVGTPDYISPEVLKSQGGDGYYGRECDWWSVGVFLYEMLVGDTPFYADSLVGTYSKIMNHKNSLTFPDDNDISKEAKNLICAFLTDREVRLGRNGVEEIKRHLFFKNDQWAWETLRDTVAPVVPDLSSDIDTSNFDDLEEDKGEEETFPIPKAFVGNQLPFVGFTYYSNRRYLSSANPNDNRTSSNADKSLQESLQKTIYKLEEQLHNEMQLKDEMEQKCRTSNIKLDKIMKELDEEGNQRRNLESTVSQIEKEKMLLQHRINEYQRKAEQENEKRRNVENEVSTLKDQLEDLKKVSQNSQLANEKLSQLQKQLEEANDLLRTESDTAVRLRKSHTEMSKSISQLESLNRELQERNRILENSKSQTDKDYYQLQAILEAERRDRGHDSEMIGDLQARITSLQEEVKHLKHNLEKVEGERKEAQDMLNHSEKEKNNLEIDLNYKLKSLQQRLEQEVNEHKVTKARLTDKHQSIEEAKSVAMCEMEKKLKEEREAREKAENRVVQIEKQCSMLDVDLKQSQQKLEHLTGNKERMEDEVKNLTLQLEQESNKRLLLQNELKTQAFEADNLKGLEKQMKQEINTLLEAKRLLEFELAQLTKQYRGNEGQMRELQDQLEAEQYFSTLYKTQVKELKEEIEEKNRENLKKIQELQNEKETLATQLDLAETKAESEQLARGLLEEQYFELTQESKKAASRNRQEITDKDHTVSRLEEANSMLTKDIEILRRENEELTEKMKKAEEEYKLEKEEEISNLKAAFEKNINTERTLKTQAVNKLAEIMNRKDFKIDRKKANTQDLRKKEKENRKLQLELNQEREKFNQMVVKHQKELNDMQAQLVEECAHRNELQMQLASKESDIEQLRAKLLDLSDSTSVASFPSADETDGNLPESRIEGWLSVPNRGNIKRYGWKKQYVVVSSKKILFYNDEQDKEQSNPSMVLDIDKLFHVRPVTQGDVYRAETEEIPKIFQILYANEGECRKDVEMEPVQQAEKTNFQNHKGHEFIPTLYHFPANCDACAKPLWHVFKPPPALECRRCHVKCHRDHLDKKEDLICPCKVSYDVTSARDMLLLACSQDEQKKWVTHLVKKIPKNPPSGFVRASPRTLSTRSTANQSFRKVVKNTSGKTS
UniProt Q12851: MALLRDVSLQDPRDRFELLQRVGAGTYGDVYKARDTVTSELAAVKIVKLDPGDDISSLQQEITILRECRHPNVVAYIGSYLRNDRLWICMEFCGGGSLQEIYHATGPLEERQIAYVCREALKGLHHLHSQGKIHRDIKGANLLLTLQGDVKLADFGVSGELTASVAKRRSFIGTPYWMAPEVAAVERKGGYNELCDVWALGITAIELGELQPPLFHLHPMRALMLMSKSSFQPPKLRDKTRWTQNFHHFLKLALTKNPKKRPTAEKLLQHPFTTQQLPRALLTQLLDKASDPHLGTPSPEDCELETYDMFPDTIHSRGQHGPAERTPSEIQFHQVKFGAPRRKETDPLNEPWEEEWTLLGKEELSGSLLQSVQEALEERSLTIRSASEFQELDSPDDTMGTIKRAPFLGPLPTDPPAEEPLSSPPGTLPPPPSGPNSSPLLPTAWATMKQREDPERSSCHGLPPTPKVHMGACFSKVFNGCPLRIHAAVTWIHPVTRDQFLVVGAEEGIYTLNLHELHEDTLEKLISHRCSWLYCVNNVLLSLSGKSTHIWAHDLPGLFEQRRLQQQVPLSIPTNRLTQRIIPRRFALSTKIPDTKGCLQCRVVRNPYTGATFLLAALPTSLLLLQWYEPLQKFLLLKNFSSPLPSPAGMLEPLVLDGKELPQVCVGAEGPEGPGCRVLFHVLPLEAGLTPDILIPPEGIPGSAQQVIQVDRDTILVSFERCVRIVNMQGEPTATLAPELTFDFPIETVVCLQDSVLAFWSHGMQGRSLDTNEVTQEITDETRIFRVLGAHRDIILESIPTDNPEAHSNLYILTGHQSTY

Each structure is given as a SMILES string. For some of these results: What follows is the remainder of the data, with few or none of the strong results. The entries are a selection whose mix differs from that of the whole data set.

The target in assay [1] is T1, Serine/threonine-protein kinase BRSK2 (Homo sapiens) (UniProt Q8IWQ3).
T1 sequence (whole entry): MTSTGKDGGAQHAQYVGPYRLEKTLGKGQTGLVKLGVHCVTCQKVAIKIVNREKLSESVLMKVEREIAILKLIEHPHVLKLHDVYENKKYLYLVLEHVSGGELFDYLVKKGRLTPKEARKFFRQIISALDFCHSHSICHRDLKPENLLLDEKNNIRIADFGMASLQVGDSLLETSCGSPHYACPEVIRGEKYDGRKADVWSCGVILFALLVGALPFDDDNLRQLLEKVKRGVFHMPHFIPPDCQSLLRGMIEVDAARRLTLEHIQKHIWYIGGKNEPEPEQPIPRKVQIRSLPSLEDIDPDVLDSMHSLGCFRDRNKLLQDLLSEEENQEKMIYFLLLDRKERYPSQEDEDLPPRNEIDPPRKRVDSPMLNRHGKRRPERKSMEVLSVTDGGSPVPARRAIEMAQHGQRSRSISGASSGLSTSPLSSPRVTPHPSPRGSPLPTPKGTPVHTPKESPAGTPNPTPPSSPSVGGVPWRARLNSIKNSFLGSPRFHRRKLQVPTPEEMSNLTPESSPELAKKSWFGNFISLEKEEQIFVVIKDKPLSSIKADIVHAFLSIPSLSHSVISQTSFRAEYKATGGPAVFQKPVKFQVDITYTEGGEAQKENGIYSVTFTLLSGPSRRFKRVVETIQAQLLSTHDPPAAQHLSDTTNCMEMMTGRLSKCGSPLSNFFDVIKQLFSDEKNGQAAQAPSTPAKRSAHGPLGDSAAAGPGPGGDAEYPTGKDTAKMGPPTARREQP
The note with it: at 1 µM.

Assay [2] deals with Cyclin-dependent kinase 2/cyclin A (Homo sapiens) (UniProt P24941+P20248+P78396). The note with it: at 1 µM.
Assay [3] addresses Death-associated protein kinase 2 (Homo sapiens) (UniProt Q9UIK4). The note with it: at 1 µM.
Assay [4] deals with Interleukin-1 receptor-associated kinase 1 (Homo sapiens) (UniProt P51617). The note with it: at 10 µM.
For assay [5], the target named is Platelet-derived growth factor receptor alpha (Homo sapiens) (UniProt P16234). As to conditions: at 10 µM.
Assay [6] addresses Receptor-type tyrosine-protein kinase FLT3 (Homo sapiens) (UniProt P36888). As to conditions: at 1 µM.
Assay [7] deals with Mitogen-activated protein kinase 11 (Homo sapiens) (UniProt Q15759). As to conditions: at 1 µM.
Assay [8] has as its target T2, Tyrosine-protein kinase ZAP-70 (Homo sapiens) (UniProt P43403).
T2 sequence (whole entry): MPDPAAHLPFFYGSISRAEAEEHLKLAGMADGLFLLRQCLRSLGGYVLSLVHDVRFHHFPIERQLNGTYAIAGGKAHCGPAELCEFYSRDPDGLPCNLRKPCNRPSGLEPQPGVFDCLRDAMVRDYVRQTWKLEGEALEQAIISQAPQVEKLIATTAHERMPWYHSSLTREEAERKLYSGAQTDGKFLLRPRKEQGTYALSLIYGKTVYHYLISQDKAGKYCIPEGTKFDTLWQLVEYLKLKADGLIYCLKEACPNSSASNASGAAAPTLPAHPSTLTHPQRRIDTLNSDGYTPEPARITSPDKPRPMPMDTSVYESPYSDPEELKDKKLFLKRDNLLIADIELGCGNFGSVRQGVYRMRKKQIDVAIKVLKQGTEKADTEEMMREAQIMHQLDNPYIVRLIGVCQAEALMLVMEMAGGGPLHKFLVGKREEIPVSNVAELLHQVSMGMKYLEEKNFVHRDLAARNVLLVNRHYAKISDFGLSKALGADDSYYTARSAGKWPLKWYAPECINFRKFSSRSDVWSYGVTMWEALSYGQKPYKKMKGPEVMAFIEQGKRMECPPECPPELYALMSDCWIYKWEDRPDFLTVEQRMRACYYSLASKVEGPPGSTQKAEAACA
As to conditions: at 1 µM.

The target of assay [9] is Protein kinase C beta type (Homo sapiens) (UniProt P05771). As to conditions: at 10 µM.
The target of assay [10] is Serine/threonine-protein kinase TAO1 (Homo sapiens) (UniProt Q7L7X3). The note with it: at 1 µM.
For assay [11], the target named is Tyrosine-protein kinase Fes/Fps (Homo sapiens) (UniProt P07332). As to conditions: at 10 µM.
For assay [12], the target named is Tyrosine-protein kinase HCK (Homo sapiens) (UniProt P08631). The note with it: at 1 µM.
The target in assay [13] is Rho-associated protein kinase 1 (Homo sapiens) (UniProt Q13464). The note with it: at 10 µM.
In assay [14] the target is T3, Testis-specific serine/threonine-protein kinase 2 (Homo sapiens) (UniProt Q96PF2).
T3 sequence (whole entry): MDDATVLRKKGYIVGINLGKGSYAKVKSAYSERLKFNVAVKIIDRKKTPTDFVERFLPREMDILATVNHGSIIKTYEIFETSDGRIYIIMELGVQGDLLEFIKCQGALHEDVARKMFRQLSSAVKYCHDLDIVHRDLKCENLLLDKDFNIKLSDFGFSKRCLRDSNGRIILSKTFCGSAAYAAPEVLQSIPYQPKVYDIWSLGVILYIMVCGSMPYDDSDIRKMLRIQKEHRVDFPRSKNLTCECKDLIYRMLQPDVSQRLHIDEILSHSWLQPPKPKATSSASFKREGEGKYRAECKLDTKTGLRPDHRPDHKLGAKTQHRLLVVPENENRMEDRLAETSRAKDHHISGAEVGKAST
The note with it: at 10 µM.

In assay [15] the target is Mitogen-activated protein kinase kinase kinase kinase 2 (Homo sapiens) (UniProt Q12851). As to conditions: at 10 µM.
For assay [16], the target named is T4, Dual specificity mitogen-activated protein kinase kinase 6 (Homo sapiens) (UniProt P52564).
T4 sequence (whole entry): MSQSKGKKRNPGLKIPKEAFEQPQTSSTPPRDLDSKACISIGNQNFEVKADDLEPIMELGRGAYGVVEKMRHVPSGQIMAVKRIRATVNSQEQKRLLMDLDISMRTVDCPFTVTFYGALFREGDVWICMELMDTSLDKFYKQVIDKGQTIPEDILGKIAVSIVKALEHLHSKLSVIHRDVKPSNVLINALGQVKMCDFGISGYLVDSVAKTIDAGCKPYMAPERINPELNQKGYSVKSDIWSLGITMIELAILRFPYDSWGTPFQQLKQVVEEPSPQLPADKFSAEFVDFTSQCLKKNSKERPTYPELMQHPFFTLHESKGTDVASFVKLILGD
The note with it: at 1 µM.

Assay [17] has as its target Proto-oncogene tyrosine-protein kinase Src (Homo sapiens) (UniProt P12931). As to conditions: at 1 µM.
Assay [18] deals with Mitogen-activated protein kinase kinase kinase 7 (Homo sapiens) (UniProt O43318). The note with it: at 10 µM.

On to `CNc1cc2c(Nc3cccc(Br)c3)ncnc2cn1`, for which the residual activity in assay [1] was 84%.

Consider `COc1cc2ncnc(Nc3ccc(O)c(Br)c3)c2cc1OC`, for which the residual activity in assay [2] turned out to be 110%; in assay [3], 96%.

`O=c1cc(-c2cccc3c2Sc2ccccc2S3)oc(N2CCOCC2)c1`: the residual activity in assay [4] worked out at 108%; in assay [5], 103%.

In the case of `Cc1ccc(S(=O)(=O)/C=C/C#N)cc1`, the residual activity in assay [6] came to 94%; in assay [7], 102%; in assay [8] it was 106%; in assay [9] it was 103%.

With `Cn1cnc2cc3c(Nc4cccc(Br)c4)ncnc3cc21`, the residual activity was found to be 91% in [7] and 112% in assay [10].

As for `CO[C@H]1[C@@H](OC)C[C@H](C)[C@@H](OC)C2=CC(=O)C=C(NC(=O)/C(C)=C/C=C/[C@H](OC)[C@@H](OC(N)=O)/C(C)=C/[C@@H]1C)C2=O`, the residual activity worked out at 96% in assay [11], 107% in assay [12] and 105% in [13].

Turning to `CC(C)(C)n1nc(Cc2cccc3ccccc23)c2c(N)ncnc21`, the residual activity in assay [14] amounted to 112%.

Turning to `Cc1ccc(NC2=CC(=O)c3sc(C)nc3C2=O)cc1`, the results for the residual activity in [15], in assay [16] and in assay [17] were 76%, 118% and 106%, respectively.

Take `O=C1NC(=O)c2cc(Nc3ccc(F)cc3)c(Nc3ccc(F)cc3)cc21`: the residual activity in [18] turned out to be 83%.
